These results are taken from BindingDB's records for US10358436 (University Health Network, 2019).

Chains of the proteins cited; added tags and fusions are not shown. Residues count along the entry.
UniProt O00444, 1-391: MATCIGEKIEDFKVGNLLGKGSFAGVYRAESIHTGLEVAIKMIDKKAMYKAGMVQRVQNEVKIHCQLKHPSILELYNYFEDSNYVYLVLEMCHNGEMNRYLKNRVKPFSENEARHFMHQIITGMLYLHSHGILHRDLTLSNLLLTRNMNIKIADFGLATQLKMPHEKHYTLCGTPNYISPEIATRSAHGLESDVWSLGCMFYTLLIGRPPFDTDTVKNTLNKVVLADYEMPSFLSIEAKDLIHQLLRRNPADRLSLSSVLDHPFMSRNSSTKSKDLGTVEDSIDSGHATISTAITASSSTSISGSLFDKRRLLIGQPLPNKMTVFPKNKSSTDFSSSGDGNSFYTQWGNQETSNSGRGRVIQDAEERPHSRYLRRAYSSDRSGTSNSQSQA

Molecules are shown by their SMILES.

This test concerns the target Serine/threonine-protein kinase PLK4 [1-391] (Homo sapiens, UniProt O00444). Description: Inhibition Assay.

By IC50 is commonly meant the concentration that inhibits the measured activity by half. The molecule `O=C1Nc2ccccc2[C@]12CC2c1ccc2c(I)n[nH]c2c1` (stereo partly specified) came in with an IC50 of 0.55 µM. That is a sub-micromolar value.
